MLLE-PAM2 inh = inhibitors of PABP1 MLLE–PAM2 peptide binding, primary screen, biochemical, fluorescence polarization, FITC-PAM2, GST-MLLE; Polyadenylate-binding protein 1 (Homo sapiens), P11940; inhibition, % at 20 µM; 0.36% of 360,000 active; in the data active = inhibition above about 35%, passing the limit was not always enough;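 also: plate controls were DMSO wells with GST-MLLE for no effect and wells lacking GST-MLLE protein for full effect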
PABP polyA inh = PABP poly(A) RNA binding inhibitors, primary screen, biochemical, fluorescence polarization, uHTS; calls only at 35 µM; 1% of 290,000 active;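 also: calls also rest on retests at 20 µM and on dose response follow-up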
UUG fidelity = modulators of start codon recognition fidelity in yeast; S. cerevisiae UUG-firefly luciferase reporter, luminescence/redox ratio; AID 602363; 350,000 tested, 0.13% active; activity score, % at 18.7 µM;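 active = replicate mean at a twofold rise or more, about +100% in these data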;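 also: firefly luciferase made from a UUG start codon reports start codon fidelity; reporter light over untreated wells divided by growth signal over untreated wells; some hits fall short of that in this replicate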
DSG3 Ab inh = inhibitors of pemphigus antibody binding to DSG3, primary screen, biochemical, bead-based, flow cytometry, scFv-GFP; Desmoglein-3 (Homo sapiens), P32926; DSG3-coupled beads, scFv-anti-DSG3-GFP binding; hits give low values; AID 588358, 2011; binding (percent of control), % at 10 µM; 0.48% of 310,000 active;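 active = binding more than 3 SD below its plate's average and above zero; inconclusive = below that plate limit but binding exactly zero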;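 also: hits lower antibody fragment binding to DSG3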
eIF4H FP inh = human eIF4H binding inhibitors, primary screen, translation initiation inhibitor project, biochemical, uHTS, fluorescence polarization; Eukaryotic translation initiation factor 4H (Homo sapiens), Q15056; eIF4H fluorescence polarization binding assay; inhibition, % at 35 µM; 0.94% of 290,000 active; AID 2012, 2009;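 also: calls also rest on retests at 20 µM and on dose response follow-up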
Numbers without * were called inactive. In the library only some 1.5% were active in any assay of this set; here they are far more common. Unless noted, no rule for the calls is given here.

Protein sequences, listed by entry. Tags and fused reporters are not part of them.
Polyadenylate-binding protein 1 (Homo sapiens), P11940, UniProt P11940, whole entry, looked up: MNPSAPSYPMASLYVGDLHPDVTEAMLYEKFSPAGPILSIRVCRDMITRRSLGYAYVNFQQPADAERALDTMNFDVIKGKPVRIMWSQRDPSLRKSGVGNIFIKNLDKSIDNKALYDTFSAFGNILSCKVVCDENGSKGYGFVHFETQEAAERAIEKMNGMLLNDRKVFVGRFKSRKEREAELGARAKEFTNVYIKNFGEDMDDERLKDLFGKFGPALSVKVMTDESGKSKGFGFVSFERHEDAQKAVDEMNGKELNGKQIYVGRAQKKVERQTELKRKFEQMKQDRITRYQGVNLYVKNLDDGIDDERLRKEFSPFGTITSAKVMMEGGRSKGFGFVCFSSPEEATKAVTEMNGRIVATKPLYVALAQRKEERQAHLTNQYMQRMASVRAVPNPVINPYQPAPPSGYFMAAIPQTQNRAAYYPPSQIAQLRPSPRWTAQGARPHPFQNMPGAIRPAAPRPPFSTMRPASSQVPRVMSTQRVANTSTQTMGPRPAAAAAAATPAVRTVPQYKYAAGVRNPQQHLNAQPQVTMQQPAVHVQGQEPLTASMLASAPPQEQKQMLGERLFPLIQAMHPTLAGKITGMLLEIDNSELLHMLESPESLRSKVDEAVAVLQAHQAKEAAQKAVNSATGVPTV
Desmoglein-3 (Homo sapiens), P32926, UniProt P32926, whole entry, looked up: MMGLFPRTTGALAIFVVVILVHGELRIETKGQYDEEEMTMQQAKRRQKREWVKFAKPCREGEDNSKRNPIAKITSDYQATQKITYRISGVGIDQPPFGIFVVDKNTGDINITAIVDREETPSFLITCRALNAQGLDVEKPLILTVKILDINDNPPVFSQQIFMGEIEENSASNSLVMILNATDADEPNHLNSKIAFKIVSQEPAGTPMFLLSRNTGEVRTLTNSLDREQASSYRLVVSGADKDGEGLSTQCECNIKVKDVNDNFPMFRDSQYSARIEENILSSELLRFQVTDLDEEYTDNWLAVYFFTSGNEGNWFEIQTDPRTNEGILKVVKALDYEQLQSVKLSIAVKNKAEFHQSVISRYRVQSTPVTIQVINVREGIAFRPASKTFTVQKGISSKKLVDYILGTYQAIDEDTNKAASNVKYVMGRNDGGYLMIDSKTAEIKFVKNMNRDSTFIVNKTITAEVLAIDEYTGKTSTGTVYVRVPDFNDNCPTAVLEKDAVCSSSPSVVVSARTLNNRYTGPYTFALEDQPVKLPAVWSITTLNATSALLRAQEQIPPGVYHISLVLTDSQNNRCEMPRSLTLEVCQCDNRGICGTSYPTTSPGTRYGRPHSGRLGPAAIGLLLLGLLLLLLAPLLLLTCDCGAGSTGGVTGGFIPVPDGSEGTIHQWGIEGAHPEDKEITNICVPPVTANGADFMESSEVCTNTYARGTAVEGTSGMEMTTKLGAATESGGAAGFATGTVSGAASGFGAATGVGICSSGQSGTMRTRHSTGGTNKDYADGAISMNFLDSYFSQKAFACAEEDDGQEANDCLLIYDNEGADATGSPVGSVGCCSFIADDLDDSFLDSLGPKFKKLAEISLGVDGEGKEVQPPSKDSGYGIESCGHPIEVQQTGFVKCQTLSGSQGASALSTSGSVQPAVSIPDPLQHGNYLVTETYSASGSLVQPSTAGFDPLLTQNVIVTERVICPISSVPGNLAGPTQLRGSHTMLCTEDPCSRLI

Screening COC(=O)C1=C(C)NC(=O)/C1=C\c1cc(C)n(-c2ccccc2C)c1C returned MLLE-PAM2 inh -13, PABP polyA inh active, UUG fidelity 9, DSG3 Ab inh 102 and eIF4H FP inh 57*.
`Cc1c(C(=O)NCc2ccc3c(c2)OCO3)sc2nc(-c3ccc(F)cc3)cn12` gave MLLE-PAM2 inh -4, PABP polyA inh inactive, UUG fidelity -7, DSG3 Ab inh 91 and eIF4H FP inh 7.
Cc1c(C(=O)NCc2ccc3c(c2)OCO3)sc2nc(-c3ccccc3)cn12 was read as MLLE-PAM2 inh 9, PABP polyA inh inactive, UUG fidelity -10, DSG3 Ab inh 58* and eIF4H FP inh 8.
Cc1ccc(NC(=S)c2ccc3ccccc3n2)c(C)c1 was read as MLLE-PAM2 inh 36*, PABP polyA inh inactive, UUG fidelity -17, DSG3 Ab inh inconclusive and eIF4H FP inh -3.
CCOc1ccc(NC(=S)c2ccc3ccccc3n2)cc1 was read as MLLE-PAM2 inh 26, PABP polyA inh inactive, UUG fidelity -26, DSG3 Ab inh 96 and eIF4H FP inh 5.
Screening COc1ccc(NC(=S)c2ccncc2)cc1 returned MLLE-PAM2 inh 22, PABP polyA inh inactive, DSG3 Ab inh 105 and eIF4H FP inh -6.
For COc1ccc(C(=S)Nc2ccc(C)cc2)cc1 the results were MLLE-PAM2 inh 40*, PABP polyA inh inactive, DSG3 Ab inh 106 and eIF4H FP inh 2.
COc1ccc(NC(=S)c2ccc3ccccc3n2)cc1 was read as MLLE-PAM2 inh 38*, PABP polyA inh inactive, UUG fidelity -24, DSG3 Ab inh 108 and eIF4H FP inh -12.
Cc1noc(C)c1NC(=O)N[C@H]1CC[C@@H](CC(=O)NCCCN(C)C)O[C@H]1CO was read as UUG fidelity -11.
CC(C)OC(=O)[C@H]1[C@H](c2ccc(Cl)cc2)[C@@](C#N)(C(N)=O)[C@@H]2C=CC(C(N)=O)=CN21 was read as MLLE-PAM2 inh 2, PABP polyA inh active, UUG fidelity -6, DSG3 Ab inh 107 and eIF4H FP inh 53*.
For C[C@@H]1CCCCO[C@H](CN(C)Cc2ccccc2)[C@H](C)CN([C@H](C)CO)C(=O)c2cc(NC(=O)Nc3ccccc3)ccc2O1 the results were UUG fidelity 22.
`CCCC(=O)Nc1ccc2c(c1)OC[C@@H](C)N(C(=O)CC1CC1)C[C@@H](C)[C@H](OC)CN(C)C2=O` gave UUG fidelity 1.
CCC(C)[C@H](N)c1cn([C@@H](CCCCN)C(=O)N2CCNCC2)nn1 (some centres not stated) was read as MLLE-PAM2 inh 5, PABP polyA inh active, UUG fidelity 13, DSG3 Ab inh inconclusive and eIF4H FP inh -5.
Screening CC=Cc1ccc2n(c1=O)C[C@H]1[C@H](CO)[C@@H](C(=O)NCC3CCCCC3)[C@@H]2N1C(=O)CC (mixture of isomers) returned UUG fidelity 8.
`Cc1ccc(C(=O)NC(=S)NNS(=O)(=O)c2ccccc2)cc1` gave MLLE-PAM2 inh 41*, PABP polyA inh inactive, DSG3 Ab inh 101 and eIF4H FP inh 20.
For CCCN(CCC)C(=S)NC(=O)c1ccc(-c2ccccc2)cc1 the results were MLLE-PAM2 inh 39*, PABP polyA inh inactive, UUG fidelity -12, DSG3 Ab inh 100 and eIF4H FP inh 18.
For Cc1ccc(S(=O)(=O)NNC(=O)c2ccc(F)cc2)cc1 the results were MLLE-PAM2 inh 6, PABP polyA inh inactive, UUG fidelity -22, DSG3 Ab inh 107 and eIF4H FP inh -10.
Cc1cc(C)c(NC(=S)NC(=O)c2ccc(-c3ccccc3)cc2)c(C)c1 was read as MLLE-PAM2 inh 18, PABP polyA inh inactive, UUG fidelity -18, DSG3 Ab inh 41* and eIF4H FP inh -12.
`CNC[C@H]1OCCCC[C@H](C)Oc2ccc(NC(=O)Nc3ccc(F)cc3)cc2C(=O)N([C@H](C)CO)C[C@H]1C` gave UUG fidelity 23.
Cc1cccc(C)c1NC(=O)CNC(=O)CCCN1C(=O)c2cccc3cccc(c23)C1=O was read as MLLE-PAM2 inh -13, UUG fidelity -14 and DSG3 Ab inh 102.
O=C(CCCN1C(=O)c2cccc3cccc(c23)C1=O)N1CCN(c2ccccc2)CC1 was read as MLLE-PAM2 inh 12, PABP polyA inh inactive, DSG3 Ab inh 47* and eIF4H FP inh 5.
`O=C(CCCN1C(=O)c2cccc3cccc(c23)C1=O)N1CCN(c2ccccc2O)CC1` gave MLLE-PAM2 inh 13, PABP polyA inh inactive, DSG3 Ab inh 100 and eIF4H FP inh 21.
Screening O=C(CCCCCN1C(=O)c2cccc3cccc(c23)C1=O)NCCO returned MLLE-PAM2 inh -18, PABP polyA inh inactive, DSG3 Ab inh 73* and eIF4H FP inh -2.
CCS(=O)(=O)N1CCCCN2[C@H](C1)[C@@H](c1ccc(-c3ccc(C(=O)N(C)C)cc3)cc1)[C@@H]2CO was read as UUG fidelity -1.
Cn1c(SCC(=O)Nc2nncs2)nnc1C1CC1 was read as MLLE-PAM2 inh -11, PABP polyA inh active, UUG fidelity -14, DSG3 Ab inh 96 and eIF4H FP inh 90*.
CCCc1cn(CC[C@H]2CC[C@@H](NC(=O)C3CCC3)[C@H](CO)O2)nn1 was read as UUG fidelity -7.
`CC1=CC(=O)c2c(O)ccc(O)c2C1=O` gave PABP polyA inh active and eIF4H FP inh 112*.
CN(CCOc1ccccc1)Cc1ccccc1 was read as MLLE-PAM2 inh 14.
`CC(COc1ccccc1)N(CCCl)Cc1ccccc1` (configuration not stated) gave MLLE-PAM2 inh 5, PABP polyA inh active, UUG fidelity -6, DSG3 Ab inh 106 and eIF4H FP inh active.
For CCC(=O)Nc1ccc2c(c1)C(=O)N(C)C[C@H](OC)[C@H](C)CN(C(=O)C1CC1)[C@@H](C)CO2 the results were UUG fidelity -3.

Overlap with the part before: two entries, followed by the next part.
`CC(COc1ccccc1)N(CCCl)Cc1ccccc1` (configuration not stated) gave MLLE-PAM2 inh 5, PABP polyA inh active, UUG fidelity -6, DSG3 Ab inh 106 and eIF4H FP inh active.
For CCC(=O)Nc1ccc2c(c1)C(=O)N(C)C[C@H](OC)[C@H](C)CN(C(=O)C1CC1)[C@@H](C)CO2 the results were UUG fidelity -3.
CCCC#Cc1ccc2c(c1)O[C@H](CN(C)C(=O)NC(C)C)[C@H](C)CN([C@@H](C)CO)S2(=O)=O was read as UUG fidelity 17.
CCN(CC)c1ccc(/C=N/Nc2nn[nH]n2)cc1 was read as MLLE-PAM2 inh -123, PABP polyA inh active, DSG3 Ab inh 114 and eIF4H FP inh 51*.
For COc1ccc(NC(=O)N(C)C[C@@H]2Oc3c(NC(=O)Nc4ccc5c(c4)OCO5)cccc3C(=O)N([C@H](C)CO)C[C@@H]2C)cc1 the results were UUG fidelity 8.
For C[C@H](CO)N1C[C@H](C)[C@@H](CN(C)S(=O)(=O)c2ccc(Cl)cc2)Oc2ccc(NC(=O)c3ccncc3)cc2CC1=O the results were UUG fidelity -4.

Gathered by group, those above containing two or more sulfur atoms
`Cc1ccc(C(=O)NC(=S)NNS(=O)(=O)c2ccccc2)cc1` gave MLLE-PAM2 inh 41*, PABP polyA inh inactive, DSG3 Ab inh 101 and eIF4H FP inh 20.
Cn1c(SCC(=O)Nc2nncs2)nnc1C1CC1 was read as MLLE-PAM2 inh -11, PABP polyA inh active, UUG fidelity -14, DSG3 Ab inh 96 and eIF4H FP inh 90*.

Screens as filed in PubChem.
